One compound from paper PMC3115942, “A Novel Synthetic Smoothened Antagonist Transiently Inhibits Pancreatic Adenocarcinoma Xenografts in a Mouse Model” (PLoS ONE, 2011) can be followed below.

For the assay, the system named is PANC-1, SUIT-2, PC-3 and FEMX cells. The experiment in a line: In vitro antiproliferative assay (MTS), tumor cell lines. Conditions: 10 µM, 4 day exposure; across PANC-1, SUIT-2, PC-3 and FEMX. It counts as cell-based, human. On the procedure: Cells were plated at a density of 3000 (THLE-2 and PC-3) and 1000 (PANC-1, SUIT-2 and FEMX) cells per well (on the basis of their growth rate) in 200 µl of medium in a 96-well plate. Medium was changed daily, and after four days, the assay was read using a MTS kit (Promega) according to the instructions of the manufacturer. Graphs display average of percent growth with standard deviation (n = 8).

As to `CC1=C2C[C@H]3[C@@H](CC=C4C[C@@H](O)CC[C@@]43C)[C@@H]2CC[C@]12O[C@@H]1C[C@H](C)CN[C@H]1[C@H]2C` [cyclopamine], the “growth reduction (MTS)” value is ≤ 30%.
